Experimental data reported in publication PMC5778159 (Naunyn-Schmiedeberg's Archives of Pharmacology, 2017).
Structures can show the parent of a compound that is named as a salt.

Test: Isolated perfused rat liver (IPRL) study, recirculating
Details: for concentration in the perfusion buffer: average, 300 μg in 200 mL
Method: Rat livers were perfused in situ using PS-1 perfusion system from Harvard Apparatus-Hugo Sachs Electronics (HA-HSE). […] The temperature of the perfusion medium was thermostatically controlled at 37 °C. In each experiment, the common bile duct was cannulated with PE-10 tubing. […] Experiments were carried out in a recirculating manner with the total volume of perfusate equal 200 mL. […] Samples of bile were collected in pre-weighed Eppendorf vials and measured by gravimetric volume at the end of perfusion period, assuming a density of 1. Perfusate was collected from the reservoir at 5 min intervals up to 45 min.
Non-compartmental estimates of hepatic pharmacokinetic parameters were determined from the outflow concentration-time profiles. The hepatic extraction ratio (ERH) was calculated according to the following equation:2 ERH=CLH/Q where CLH is a hepatic clearance (per gram of liver) and Q is a perfusate flow (per gram of liver).
The apparent hepatobiliary clearance (CLb,app) was calculated as the cumulative amount of drug excreted in bile divided by the AUC0-t of the drug in the perfusate.

CN1c2ccccc2C(NCCCCCCC(=O)O)c2ccc(Cl)cc2S1(=O)=O (stereo not drawn) [Tianeptine, Tianeptine sodium salt]
concentration in the perfusion buffer (after 45 min): 17 ng/mL
concentration in the perfusion buffer (first sampling time (5 min)): 952 ng/mL
percent eliminated into the bile (up to 45 min of perfusion, mean ± SD): 0.94 ± 0.33 % of the administered dose
